Test results: patent US20230212549A1, “COMPOUNDS COMPRISING A […] LIGAND AND USE THEREOF” (priority 2021, published 2023)

The chains behind the UniProt entries cited, without tags or fusion partners. Where a name states a change or a piece, a line headed by the entry shows the natural chain unless it says otherwise. Residues count along the entry.
UniProt O75604, 259-605 limits assumed: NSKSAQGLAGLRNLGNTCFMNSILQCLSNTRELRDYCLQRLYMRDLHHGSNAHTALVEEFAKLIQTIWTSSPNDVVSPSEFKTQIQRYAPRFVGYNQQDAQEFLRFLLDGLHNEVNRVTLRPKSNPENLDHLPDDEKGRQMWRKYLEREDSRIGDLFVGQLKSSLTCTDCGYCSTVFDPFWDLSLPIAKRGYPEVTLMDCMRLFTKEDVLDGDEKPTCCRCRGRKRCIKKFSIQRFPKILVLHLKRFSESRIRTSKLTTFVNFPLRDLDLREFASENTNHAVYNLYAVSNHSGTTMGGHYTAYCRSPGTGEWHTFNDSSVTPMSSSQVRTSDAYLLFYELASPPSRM
UniProt P45974: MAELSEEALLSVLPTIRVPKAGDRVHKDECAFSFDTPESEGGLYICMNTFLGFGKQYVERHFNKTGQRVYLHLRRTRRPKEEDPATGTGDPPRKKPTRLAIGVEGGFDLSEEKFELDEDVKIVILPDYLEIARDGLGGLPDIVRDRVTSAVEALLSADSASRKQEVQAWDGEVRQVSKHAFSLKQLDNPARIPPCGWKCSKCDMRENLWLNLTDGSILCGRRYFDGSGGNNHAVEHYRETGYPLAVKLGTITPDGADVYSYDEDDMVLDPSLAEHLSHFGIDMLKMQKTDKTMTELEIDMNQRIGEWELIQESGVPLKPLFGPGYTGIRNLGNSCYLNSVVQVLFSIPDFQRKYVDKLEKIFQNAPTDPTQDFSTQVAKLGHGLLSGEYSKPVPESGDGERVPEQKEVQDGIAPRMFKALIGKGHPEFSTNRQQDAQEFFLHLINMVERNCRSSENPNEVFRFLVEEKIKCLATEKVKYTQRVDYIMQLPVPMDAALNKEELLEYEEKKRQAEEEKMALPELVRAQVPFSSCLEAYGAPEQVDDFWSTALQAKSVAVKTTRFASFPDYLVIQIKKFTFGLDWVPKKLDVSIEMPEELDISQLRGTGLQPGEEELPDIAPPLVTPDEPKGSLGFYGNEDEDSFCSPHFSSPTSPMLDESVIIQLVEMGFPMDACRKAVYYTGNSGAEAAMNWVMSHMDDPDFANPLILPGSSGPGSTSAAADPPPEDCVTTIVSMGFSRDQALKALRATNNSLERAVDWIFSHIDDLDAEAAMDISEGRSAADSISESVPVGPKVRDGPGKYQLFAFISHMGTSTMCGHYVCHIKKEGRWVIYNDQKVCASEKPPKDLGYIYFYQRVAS
UniProt P40818: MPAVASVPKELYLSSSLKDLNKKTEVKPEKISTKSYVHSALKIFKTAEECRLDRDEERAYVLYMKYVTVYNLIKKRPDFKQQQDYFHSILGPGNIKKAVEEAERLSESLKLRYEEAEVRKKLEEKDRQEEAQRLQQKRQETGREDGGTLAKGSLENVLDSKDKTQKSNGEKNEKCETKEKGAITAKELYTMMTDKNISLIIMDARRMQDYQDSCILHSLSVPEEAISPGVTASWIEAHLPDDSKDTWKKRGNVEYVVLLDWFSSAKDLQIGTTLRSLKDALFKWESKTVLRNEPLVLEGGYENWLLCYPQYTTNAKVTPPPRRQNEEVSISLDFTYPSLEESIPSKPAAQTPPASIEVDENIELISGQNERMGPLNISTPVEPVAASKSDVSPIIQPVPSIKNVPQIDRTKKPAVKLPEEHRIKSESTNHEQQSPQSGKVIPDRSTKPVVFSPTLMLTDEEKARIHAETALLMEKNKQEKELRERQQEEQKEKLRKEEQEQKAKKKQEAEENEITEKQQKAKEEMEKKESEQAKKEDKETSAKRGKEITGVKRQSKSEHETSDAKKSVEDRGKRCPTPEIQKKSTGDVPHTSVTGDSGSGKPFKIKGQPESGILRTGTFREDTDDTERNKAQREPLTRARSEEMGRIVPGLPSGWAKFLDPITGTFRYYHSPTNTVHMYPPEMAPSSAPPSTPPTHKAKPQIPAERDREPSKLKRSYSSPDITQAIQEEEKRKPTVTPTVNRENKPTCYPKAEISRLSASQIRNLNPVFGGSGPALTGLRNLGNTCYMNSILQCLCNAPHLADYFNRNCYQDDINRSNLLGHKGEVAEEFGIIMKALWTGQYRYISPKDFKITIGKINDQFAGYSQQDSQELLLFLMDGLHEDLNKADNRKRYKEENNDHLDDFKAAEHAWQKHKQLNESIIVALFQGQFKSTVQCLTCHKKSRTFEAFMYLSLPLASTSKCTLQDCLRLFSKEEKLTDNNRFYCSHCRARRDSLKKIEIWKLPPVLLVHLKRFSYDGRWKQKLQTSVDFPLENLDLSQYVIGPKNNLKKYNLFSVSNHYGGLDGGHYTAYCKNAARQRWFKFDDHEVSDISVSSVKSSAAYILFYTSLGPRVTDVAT

How the values were obtained:
Experiment in all cases: cell-based or functional assay
[1] = molecular target: Ubiquitin carboxyl-terminal hydrolase 2 (UniProt O75604)
[2] = molecular target: Ubiquitin carboxyl-terminal hydrolase 5 (UniProt P45974)
[3] = molecular target: Ubiquitin carboxyl-terminal hydrolase 8 (UniProt P40818)

Q: What does the source list for Ub-Aldehyde (from UniProt P0CG48 1-76)?
A: Percentage inhibition (%), reference at 1 µM [1]: 91%; Percentage inhibition (%), reference at 1 µM [2]: 84%; Percentage inhibition (%), reference at 1 µM [3]: 73%
